Tests used:
[1] = system: constitutive active colorectal cancer cell (CRC) Wnt pathway, HCT116 TOPFlash; assay: Cellular reporter assay, HCT116 Super TopFlash (constitutive active Wnt pathway), luciferase expression; assay type: cell-based; settings: read-out: HCT116 TOPFlash IC50 [mol/L]; HCT116 Super TopFlash reporter cells, 36 hours incubation, dilution series 50 μM to 15 nM
Protocol: In order to discover and characterize small molecules which inhibit the constitutive active colorectal cancer cell (CRC) Wnt pathway, a cellular reporter assay was employed. The corresponding assay cell was generated by transfection of the colorectal cancer cell line HCT116 (ATCC, #CCL-247) with the Super TopFlash vector (Morin, Science 275, 1997, 1787-1790; Molenaar et al., Cell 86 (3), 1996, 391-399). The HCT116 cell line is cultivated at 37° C. and 5% CO2 in DMEM/F-12 (Life Technologies, #11320-074), supplemented with 2 mM glutamine, 20 mM HEPES, 1.4 mM pyruvate, 0.15% Na-bicarbonate and 10% foetal bovine serum (GIBCO, #10270), this cancer cell line is pathophysiological relevant since it carries a deletion of position S45 in the β-catenin gene, leading to constitutive active Wnt signaling. […]
(§1) In preparation of the assay, the two cell lines were plated 24 hours before at 10000 cells per well of a 384 micro titre plate (MTP) in 30 μL growth medium. Selective inhibitory activity for small molecules on the mutated Wnt pathway was determined after parallel incubation of both (TOP and FOP) HCT116 reporter cell lines with a compound dilution series from 50 μM to 15 nM in steps of 3.16-fold dilutions in CAFTY buffer (130 mM NaCl, 5 mM KCl, 20 mM HEPES, 1 mM MgCl2, 5 mM NaHCO3, pH 7.4) containing 2 mM Ca^2+ and 0.01% BSA. […]

[2] = system: HCT116 FOPFlash; assay: Control reporter assay, HCT116 FOP control vector (non-functional TCF elements), luciferase expression; assay type: cell-based; settings: read-out: HCT116 FOPFlash IC50 [mol/L]; HCT116 FOP control reporter cells, 36 hours incubation, dilution series 50 μM to 15 nM
Protocol: In a parallel approach, HCT116 cells were cotransfected with the FOP control vector and pcDNA3. The FOP vector is identical to the TOP construct, but it contains instead of functional TCF elements a randomized, non-functional sequence. For this transfection a stable transfected cell line was generated as well.
as §1, with “BSA. The compounds were thereby serially prediluted in 100% DMSO and thereafter in addition 50 fold into the CAFTY compound dilution buffer (described above). From this dilution 10 μL were added to the cells in 30 μL growth medium and incubated for 36 hours at 37° C. and 5% CO2.” for “BSA.”

With “1-methyl-4-(2-{[5-{[5-(5-methyl-1,3-thiazol-4-yl)-1,3,4-thiadiazol-2-yl]carbamoyl}-2-(trifluoromethoxy)phenyl]amino}-2-oxoethyl)piperazin-1-ium hexafluorophosphate” the IC50 [1] was 1200 nM and the IC50 [2] was at least 50000 nM.

Source: patent US20170107212A1, “NOVEL COMPOUNDS” (Bayer Pharma Aktiengesellschaft, priority 2014, published 2017)
